This note sets out measurements from patent publication US20060242739A1, “Plant nucleotide-sugar pyrophosphatase/phosphodiesterase (nppase), method of obtaining same and use of same in the production of assay devices and in the production of transgenic plants” (Universidad Publica De Navarra, priority 2002, published 2006).

By Km is commonly meant the substrate concentration at which the rate is half of its maximum. Usually Vmax stands for the rate approached at saturating substrate. As a reminder, the kcat/Km is the turnover number divided by the Michaelis constant.

For the data set, the system named is ADP-ribose. The experiment in a line: purified protein, by the assay type. The settings on record: pH 7.0.
Setting [1] is: other: substrate of NPPase from rice leaves, 37.0 °C.

Take “NPPase from barley leaves (Hordeum vulgare)”: under “other: substrate of NPPase from barley leaves”, the Km worked out at 2400 µM.

For “NPPase from rice leaves (Oryza sativa Japonica Group)”, under setting [1], the Km is 1430 µM, the Vmax came out at 317 µmol/min/mg and the kcat/Km came to 248000 M⁻¹ s⁻¹.
